These are literature values, as cited in paper PMC6162689.

What is called Kd is a measure of binding affinity in units of concentration.

The target in the data set is CA125 (Homo sapiens) (UniProt Q8WXI7).

Consider Mesothelin (from UniProt Q13421), for which the Kd is 5 nM.
